# Yeast mating assay B: variants of the scFv Ab-14

Data: MIT Lincoln Laboratory AlphaSeq set, Li et al. 2023, doi:10.1038/s41467-023-39022-2, as distributed in FLAb.

The target is the same throughout: PDVDLGDISGINAS, from the HR2 region of SARS-CoV-2 spike.

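Phage display of a naive human antibody library on the peptide gave the parent. The variants were designed computationally from a first round of random CDR variants and then made and measured. Several design methods are mixed in this list. The assay is AlphaSeq: two haploid yeast populations carry antibody and antigen on their surface. Pairs that bind mate more often; barcode pairs of the diploids are counted by sequencing. A regression on co-assayed BCL2-family reference pairs converts the normalised counts of each replicate to an apparent Kd. There are six technical replicates.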

Parent scFv Ab-14: VH joined to VL by the linker GGGGSGGGGSGGGGS. Changes lie in the light chain CDRs alone.
VH: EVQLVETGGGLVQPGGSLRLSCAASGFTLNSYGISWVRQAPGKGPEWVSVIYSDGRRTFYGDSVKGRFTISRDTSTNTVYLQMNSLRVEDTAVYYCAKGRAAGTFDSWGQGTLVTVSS
VL: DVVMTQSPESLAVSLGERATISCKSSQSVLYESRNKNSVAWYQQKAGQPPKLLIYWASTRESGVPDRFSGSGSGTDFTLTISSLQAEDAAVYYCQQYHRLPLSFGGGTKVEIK

Variants are written as CDR1, CDR2 and CDR3 of the light chain (limits as in the source). Parent: KSSQSVLYESRNKNSVA, WASTRES, QQYHRLPLS. Variants here have at most six changes. Kd is apparent (estimated from mating counts) and averaged on the log scale over replicates with a signal. Smaller is tighter. An entry "nd" has no value in the source: the pair was not observed among the diploids in any replicate. This suggests poor binding but is not conclusive. The parent sequence was in this pool as ten entries: three were never detected, three once, and four in most replicates, with averages from 2.2 nM to 240 nM.

With KSSQSVPYESRNKNSVA | MASTRES | QTYHRLPLS the result was 16 nM (6 of 6 replicates). For KNSASVLYESRNHNSVA | WASTRES | QQYHRLPLS, the assay gave 190 nM (2 of 6 replicates). With KISQSVLYESRNKKSVA | WASTRES | QQYHRLPLS the result was 28 nM (6 of 6 replicates). The variant HSSDSVLYESRNGNSVA | NASTREA | QQYHRLPLS gave 5.1 nM (6 of 6 replicates). With KSQQSVLYESDNKNSVA | EASTRES | QQYHRYPLS the result was 86 nM (5 of 6 replicates).

With KLYQSVLYESRNKNSVA | HASTRED | QQYHRLPLS the result was 550 pM (6 of 6 replicates). With HSSPSVAYESRNKNSVA | EASTRES | QQYHRLPLS the result was 1.8 nM (6 of 6 replicates). The variant KLSQSALYESRNKNSVA | NASTRES | QQYHRLPLS gave 690 pM (6 of 6 replicates). The variant KLSQSVLYEDRHKNSVA | GASKRFS | QQYHRLPLS gave 46 nM (6 of 6 replicates). For KSSISYLGEERNKNSVA | EASTRES | QQYHRLPLS, the assay gave 1.4 nM (6 of 6 replicates).

For KLQQSELYESRNKNSVA | HASTRLS | QQYHRLPLS, the assay gave 12 nM (6 of 6 replicates). The variant KHSISVWGEDRNKNSVA | DASTRES | QQYHRLPLS showed 790 pM (6 of 6 replicates). The variant KSLQSWLYESRNKNSVA | QASTREQ | QQYHRLPLS showed 3.8 nM (6 of 6 replicates). The variant KLMQSFLYESRNKNSVA | NASQRES | QQYHRLPLS showed 780 pM (6 of 6 replicates). For KESQSWIYESRNKNNVA | GASTRES | QQYHRLPLS, the assay gave 440 pM (6 of 6 replicates).

The variant KSSQSVLSESRNQYSVA | KASTRES | QQYHRLPLS showed 44 nM (6 of 6 replicates). With KISQSVLFQSRNKNSVA | DASTRES | QQYHRLPLS the result was 590 pM (6 of 6 replicates). The variant KLMQSQLYESRNKNSVA | NASQRES | QQYHRLPLS gave 600 pM (6 of 6 replicates). The variant KLSGSMLYESRNKNSVA | NASTRMS | QQYHRLPLS showed 3.9 nM (6 of 6 replicates). For KLSQSVLYEQRNKNSVA | QASTRES | QQYHRLPLS, the assay gave 3.0 nM (6 of 6 replicates).

For KISQQWLYESRNKNSVA | NASTRES | QQYHRLPLS, the assay gave 600 pM (6 of 6 replicates). The variant KLQQSNLYESRNKNSVA | GASTRES | QQYHRLPLS showed 490 pM (6 of 6 replicates). The variant KSSQAVLYEYRNKNSVA | WASTRES | QQYHRSPLS showed nd (0 of 6 replicates). For KVPQSVPYESRNKNSVA | NASTRES | QQYHRLPLS, the assay gave 750 pM (6 of 6 replicates). With KVPQSVLYESRNKNAVA | QASTRES | QDYHRLPLS the result was 580 pM (6 of 6 replicates).

The variant KLSQSVLYESRNKNSVA | HASTRED | QQYHRLPLS gave 670 pM (6 of 6 replicates). With HSSPSVLYESRNGNSVA | NASTRES | QQYHRLPLS the result was 960 pM (6 of 6 replicates). The variant KISQSWLYESRNSNSVA | NASTREL | QDYHRLPLS showed 1.4 nM (6 of 6 replicates). The variant KVSQSNLYESRNKNSVA | NASTRMS | QQYHRLPLS showed 1.6 nM (6 of 6 replicates). The variant KLSQSVLYESRNKNNVA | NASTRCS | QQYHRLPLS gave 350 pM (6 of 6 replicates).

With KLSQSHLYESRNKNSVA | HASTRCS | QQYHRLPLS the result was 380 pM (6 of 6 replicates). For KLSMSVLYESRNKNSVA | EASTRES | QQYHRLPLS, the assay gave 450 pM (6 of 6 replicates). For KSSQSWLYESRNKNSVA | DASQRES | QQYHRLPLS, the assay gave 560 pM (6 of 6 replicates). For KVQQSWLYESRNKNSVA | EASTRES | QQYHRLPLS, the assay gave 2.5 nM (6 of 6 replicates). With KLSQSMLYESRNKNSVA | NASQREE | QQYHRLPLS the result was 890 pM (6 of 6 replicates).

The variant KLSQSVLYEQRNKNSVA | DASTRES | QQYHRLPLS gave 290 pM (6 of 6 replicates). The variant KSSQSVLYESRNKNSVA | KASTRES | QQYHRLPLA gave 2.5 nM (6 of 6 replicates). With KSSQSVTYESRNKNSVA | HASLRES | QQKHRLPLS the result was 72 nM (4 of 6 replicates). The variant KSDQSVLIESRFKNSVA | WASTRES | QQLHRLPLS gave nd (0 of 6 replicates). The variant KLKQSELYESRNKNSVA | NASTRMS | QQYHRLPLS gave 500 pM (6 of 6 replicates).

With KSPQSVLYESANKNSVA | HASTRES | QQYHRLPLS the result was 960 pM (6 of 6 replicates). With KVSQSFLYESRNFNSVA | GASTRES | QQYHRLPLS the result was 3.4 nM (6 of 6 replicates). For KLSQSTLYDSENKNSVA | WASTRES | QQYKRLPLS, the assay gave 3.1 nM (6 of 6 replicates). With KFVQSWLYESRNKNAVA | HASTRCS | QQYHRLPLS the result was 2.9 nM (6 of 6 replicates). The variant KSSQSFLYESRNKNSVA | GASTRES | QQGHRLTLS gave 1.5 nM (6 of 6 replicates).

With KLSQSQLYESRNWNSVA | NASTRES | QQYHRLPLS the result was 1.1 nM (6 of 6 replicates). The variant KSSQSVLYESRNKNSVA | YASTRFS | QQYHRLPLS gave nd (0 of 6 replicates). For KSSQSVLWESRGKNSVA | WASTRES | QQYHRLPLS, the assay gave 470 nM (1 of 6 replicates). For KSSDSVLYESANKNSVA | WASTRES | QQYHREPLS, the assay gave nd (0 of 6 replicates). With KISQSNLYESRNKNSIA | NANTREQ | QQYHRLPLS the result was 3.3 nM (6 of 6 replicates).

With KLQQQVLYESRNKNSVA | SASTREE | QQYHRLPLS the result was 5.7 nM (6 of 6 replicates).

The closing 5 entries, repeated:

CDR-L1,CDR-L2,CDR-L3,Kd,seen in
KSSQSVLYESRNKNSVA,YASTRFS,QQYHRLPLS,nd,0/6
KSSQSVLWESRGKNSVA,WASTRES,QQYHRLPLS,470 nM,1/6
KSSDSVLYESANKNSVA,WASTRES,QQYHREPLS,nd,0/6
KISQSNLYESRNKNSIA,NANTREQ,QQYHRLPLS,3.3 nM,6/6
KLQQQVLYESRNKNSVA,SASTREE,QQYHRLPLS,5.7 nM,6/6

Background: pairings of all light chain designs with three empty control strains gave a value in 4% of cases (median 430 nM, 5th percentile 38 nM). Values in that range, when seen in few replicates, are hard to tell from nonspecific mating. The authors' rule: three or more of the six replicates give a measured affinity, fewer mean a poor binder. A sequence measured in both rounds can read differently, since the two assays cover different ranges.